The source of these data is PMC2789237 (Analytical Biochemistry, 2010).

For this series, the system named is Nc1nc2c(c(=O)[nH]1)N=C(CNc1ccc(C(=O)N[C@@H](CCC(=O)O)C(=O)O)cc1)CN2. The experiment in a line: purified protein. The conditions noted are these: NADPH.

In the case of “dihydrofolate reductase–thymidylate synthase (TbDHFR-TS) (Trypanosoma brucei brucei)”, the Michaelis constant (Km) worked out at 7.3 ± 1.5 µM.
